Reference: publication PMC6107554
Read-outs that look alike come from different tables or passages of the source.

Protein sequences, listed by entry. Tags and fused reporters are not part of them. Lines headed by an entry give the natural chain unless they say otherwise; changes in a name come on top.
UniProt Q9UQL6: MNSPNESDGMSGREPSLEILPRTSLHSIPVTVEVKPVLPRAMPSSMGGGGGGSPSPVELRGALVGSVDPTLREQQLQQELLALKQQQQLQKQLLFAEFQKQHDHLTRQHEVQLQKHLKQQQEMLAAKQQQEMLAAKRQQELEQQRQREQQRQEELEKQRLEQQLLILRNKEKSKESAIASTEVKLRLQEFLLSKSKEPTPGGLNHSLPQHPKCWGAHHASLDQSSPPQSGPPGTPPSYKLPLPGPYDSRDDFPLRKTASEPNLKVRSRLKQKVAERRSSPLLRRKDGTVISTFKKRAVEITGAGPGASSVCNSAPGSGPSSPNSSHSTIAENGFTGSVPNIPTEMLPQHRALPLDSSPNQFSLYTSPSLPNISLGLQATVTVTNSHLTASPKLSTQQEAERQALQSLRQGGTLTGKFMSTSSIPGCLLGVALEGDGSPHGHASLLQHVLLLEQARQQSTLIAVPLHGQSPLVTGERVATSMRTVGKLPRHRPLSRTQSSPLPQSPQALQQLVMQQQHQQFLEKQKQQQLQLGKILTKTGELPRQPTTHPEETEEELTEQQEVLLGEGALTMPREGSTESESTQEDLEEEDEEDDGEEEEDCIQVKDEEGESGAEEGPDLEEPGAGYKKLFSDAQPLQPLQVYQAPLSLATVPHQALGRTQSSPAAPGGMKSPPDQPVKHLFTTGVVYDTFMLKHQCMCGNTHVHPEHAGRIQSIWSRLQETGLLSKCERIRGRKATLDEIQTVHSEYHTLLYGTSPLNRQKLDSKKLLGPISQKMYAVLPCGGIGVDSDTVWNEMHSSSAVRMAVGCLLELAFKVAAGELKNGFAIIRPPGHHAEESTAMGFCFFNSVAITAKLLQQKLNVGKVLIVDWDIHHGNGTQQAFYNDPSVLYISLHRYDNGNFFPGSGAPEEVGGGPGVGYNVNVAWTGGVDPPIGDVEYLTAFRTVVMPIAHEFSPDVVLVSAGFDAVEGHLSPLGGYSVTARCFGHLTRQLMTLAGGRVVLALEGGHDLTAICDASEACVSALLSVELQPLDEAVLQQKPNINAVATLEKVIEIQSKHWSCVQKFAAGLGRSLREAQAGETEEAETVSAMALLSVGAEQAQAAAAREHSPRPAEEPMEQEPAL

Assays:
HA-HDAC5 [1] = biological target: HA-HDAC5 (UniProt Q9UQL6)
HA-HDAC5 [2] = biological target: HA-HDAC5 (UniProt Q9UQL6); remark: listed apart in the source
HA-HDAC5 [3] = biological target: HA-HDAC5 (UniProt Q9UQL6); assay: co-IP; HEK 293T co-transfected with Gal4-RDs and HA-HDAC5; lysis in RIPA buffer; lysate incubated with anti-HA or anti-GAL4 antibody overnight at 4 °C, protein A/G beads, five washes in PBS; western blot for the Gal4 or HA tag; band density by Quantity One, three independent experiments
HA-HDAC5 [4] = biological target: HA-HDAC5 (UniProt Q9UQL6); remark: listed apart in the source

Row | luciferase reporter (Gal4 sites, HEK 293T): transcriptional repression by Gal4-RD (HA-HDAC5 [1]) [fold] | luciferase reporter: loss of repression activity against the wild-type RD (HA-HDAC5 [2]) [%] | reduction of binding activity against the wild-type RD (HA-HDAC5 [3]) [%] | luciferase reporter: loss of repression activity against the wild-type RD (HA-HDAC5 [4]) [%] | Substance
1 | 25 | – | – | – | Gal4 DNA-binding domain fused to the wild-type repression domain (RD) of Tbx3 (domain or fragment)
2 | – | 40 | 80 | – | Gal4-RD of Tbx3 with 585LFSYPYT591 substituted by glycine (MT4) (domain or fragment)
3 | – | – | 30 | 27 | Gal4-RD of Tbx3 with 604HRH606 replaced by aspartic acid (MT10) (domain or fragment)
